In patent US7018989B2, “Chemical compounds” (University College Cardiff Consultants, LTD, priority 1995, dated 2006):

System: CEM cells
Assay: Toxicity to CEM cells
Format: cell-based, human
Settings: Table 6; mean of two or more repeat experiments
Experimental: Cells were infected with HIV-1 as previously described [Balzarini et al. AIDS (1991), 5, 21–28]. Briefly, 5×10^5 cells per milliliter were infected with HIV-1 or HIV-2 at 100 CCID50 (50% cell culture infective dose) per milliliter of cell suspension. Then 100 μL of the infected cell suspension was transferred to microtiter plate wells and mixed with 100 μL of the appropriate dilutions of the test compounds. After 4 days giant cell formation was recorded microscopically in the HIV-infected cell cultures [CEM], and after 5 days the number of viable cells was determined by trypan blue staining of the HIV-infected cell cultures [MT4].
The data columns are, in order: • HIV1 MT4: EC50 in μM for inhibition of HIV-1 in MT4 cells. • HIV2 MT4: EC50 in μM for inhibition of HIV-2 in MT4 cells. • CC50 MT4: CC50 in μM for toxicity to MT-4 cells. • HIV1 CEM: EC50 in μM for inhibition of HIV-1 in CEM cells. • HIV2 CEM: EC50 in μM for inhibition of HIV-2 in CEM cells. • HIV2 CEM-TK-: EC50 in μM for inhibition of HIV-2 in CEM/TK^− cells. • CC50 CEM: CC50 in μM for toxicity to CEM cells. • EC50 MSV: EC50 in μM for inhibition of MSV • MCC MSV: Minimum cytotoxic concentration in MSV assay

Cc1cn(C2C=CC(COP(=O)(NC(C)C(=O)OCc3ccccc3)Oc3ccccc3)O2)c(=O)[nH]c1=O (stereo not shown) [Compound 730, 2′,3′-dideoxy-2′,3′-didehydrothymidine-5′-(phenyl N-benzyloxyalaninyl) phosphoramidate]
CC50: 25 µM
